# Data: patent publication US10730874B2 (Shire Human Genetic Therapies, Inc., priority 2018, dated 2020)
# Protein sequences, listed by entry. Tags and fused reporters are not part of them. Residues count along the entry.
# UniProt P03952, 20-390 partner: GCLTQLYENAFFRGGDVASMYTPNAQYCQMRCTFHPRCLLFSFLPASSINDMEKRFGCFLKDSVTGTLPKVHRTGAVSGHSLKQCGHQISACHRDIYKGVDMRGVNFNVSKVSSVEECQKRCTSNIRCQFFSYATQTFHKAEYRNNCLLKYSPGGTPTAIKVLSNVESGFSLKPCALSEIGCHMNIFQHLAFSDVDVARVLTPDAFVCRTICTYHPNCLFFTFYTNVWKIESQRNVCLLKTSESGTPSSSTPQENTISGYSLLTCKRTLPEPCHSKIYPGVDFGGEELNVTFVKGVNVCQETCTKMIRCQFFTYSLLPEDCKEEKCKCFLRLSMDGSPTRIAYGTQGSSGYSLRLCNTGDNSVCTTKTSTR
# UniProt P03952, 391-638: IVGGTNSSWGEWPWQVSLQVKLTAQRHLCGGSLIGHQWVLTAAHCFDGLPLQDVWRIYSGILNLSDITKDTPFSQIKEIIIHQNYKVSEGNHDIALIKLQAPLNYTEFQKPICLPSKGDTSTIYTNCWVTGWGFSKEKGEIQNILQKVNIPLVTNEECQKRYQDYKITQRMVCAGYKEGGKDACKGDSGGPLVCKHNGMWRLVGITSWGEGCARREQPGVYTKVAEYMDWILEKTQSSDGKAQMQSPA
# Biological target: human activated kallikrein enzyme (plasma kallikrein) (Homo sapiens (Human), UniProt P03952)
# Test: Inhibition of human activated plasma kallikrein, fluorogenic peptide substrate assay, 500 pM enzyme format
# Assay type: biochemical
# Conditions: 500 pM activated kallikrein enzyme, 300 uM Pro-Phe-Arg-7-amido-4-methylcoumarin substrate, 30 min preincubation, 10 min at RT; read-out: Primary Dose Response Assay: Average EC50
# Protocol: Example compounds were evaluated for inhibition of the human activated kallikrein enzyme in two formats of an assay employing a fluorogenic peptide substrate. In one assay format, the concentrations of reagents were as follows: 20 mM Tris pH 7.5, 1 mM EDTA, 150 mM sodium chloride, 0.1% PEG-400, 0.1% Triton X-100, 500 pM activated kallikrein enzyme, 300 uM Pro-Phe-Arg-7-amido-4-methylcoumarin substrate. Prior to reaction initiation with substrate, enzyme and inhibitors were preincubated for 30 min at RT. After initiation with substrate, reactions were incubated for 10 min at RT and fluorescence emission at 460 nm from 380 nm excitation measured with a microplate reader. In another assay format, the concentrations of reagents were as follows: 20 mM Tris pH 7.5, 1 mM EDTA, 150 mM sodium chloride, 0.1% PEG-400, 0.1% Triton X-100, 5 pM activated kallikrein enzyme, 300 uM Pro-Phe-Arg-7-amido-4-methylcoumarin substrate. Prior to reaction initiation with substrate, enzyme and inhibitors were preincubated for 30 min at RT. After initiation with substrate, reactions were incubated for 18 h at RT and fluorescence emission at 460 nm from 380 nm excitation measured with a microplate reader.
row,EC50 [nM],Structure (SMILES)
1,< 1,"Cc1c(C2CC2)ccc2nc(Cn3cc(C(=O)NCc4ncn5ccc(Br)cc45)cn3)cn12 [Example I-14, N-((7-bromoimidazo[1,5-a]pyridin-1-yl)methyl)-1-((6-cyclopropyl-5-methylimidazo[1,2-a]pyridin-2-yl)methyl)-1H-pyrazole-4-carboxamide]"
2,< 1,"O=C(NCc1ncn2ccc(Br)c(F)c12)c1cnn(Cc2cn3nc(C4CC4)ccc3n2)c1 [Example I-108, N-((7-bromo-8-fluoroimidazo[1,5-a]pyridin-1-yl)methyl)-1-((6-cyclopropylimidazo[1,2-b]pyridazin-2-yl)methyl)-1H-pyrazole-4-carboxamide]"
3,< 1,"O=C(NCc1ncn2ccc(Br)cc12)c1cnn(Cc2cn3c(Cl)c(C4CC4)ccc3n2)c1 [Example I-57, N-((7-bromoimidazo[1,5-a]pyridin-1-yl)methyl)-1-((5-chloro-6-cyclopropylimidazo[1,2-a]pyridin-2-yl)methyl)-1H-pyrazole-4-carboxamide]"
4,< 1,"O=C(NCc1ncn2ccc(Br)c(F)c12)c1cnn(Cc2cn3c(F)c(C4CC4)ccc3n2)c1 [Example I-164, N-((7-bromo-8-fluoroimidazo[1,5-a]pyridin-1-yl)methyl)-1-((6-cyclopropyl-5-fluoroimidazo[1,2-a]pyridin-2-yl)methyl)-1H-pyrazole-4-carboxamide]"
5,< 1,"O=C(NCc1ncn2ccc(Br)c(F)c12)c1cnn(Cc2cn3cc(C4CC4)ccc3n2)c1 [Example I-97, N-((7-bromo-8-fluoroimidazo[1,5-a]pyridin-1-yl)methyl)-1-((6-cyclopropylimidazo[1,2-a]pyridin-2-yl)methyl)-1H-pyrazole-4-carboxamide]"

row,Structure (SMILES),EC50 [nM]
1,"Cc1c(Cl)ccc2nc(Cn3cc(C(=O)NCc4ncn5ccc(Cl)c(F)c45)nn3)cn12 [Example I-172, 1-((6-chloro-5-methylimidazo[1,2-a]pyridin-2-yl)methyl)-N-((7-chloro-8-fluoroimidazo[1,5-a]pyridin-1-yl)methyl)-1H-1,2,3-triazole-4-carboxamide]",< 1
